Values quoted from earlier work as cited in patent US20160271149A1, “[…] COMPOUNDS THAT […] PROTEIN ARGININE […] ACTIVITY FOR REDUCING TUMOR CELL PROLIFERATION” (Epinova Therapeutics Corp., priority 2015, published 2016).

Molecular target: T1, human PPARα (Homo sapiens, UniProt Q07869)
T1 sequence (Q07869 1-468): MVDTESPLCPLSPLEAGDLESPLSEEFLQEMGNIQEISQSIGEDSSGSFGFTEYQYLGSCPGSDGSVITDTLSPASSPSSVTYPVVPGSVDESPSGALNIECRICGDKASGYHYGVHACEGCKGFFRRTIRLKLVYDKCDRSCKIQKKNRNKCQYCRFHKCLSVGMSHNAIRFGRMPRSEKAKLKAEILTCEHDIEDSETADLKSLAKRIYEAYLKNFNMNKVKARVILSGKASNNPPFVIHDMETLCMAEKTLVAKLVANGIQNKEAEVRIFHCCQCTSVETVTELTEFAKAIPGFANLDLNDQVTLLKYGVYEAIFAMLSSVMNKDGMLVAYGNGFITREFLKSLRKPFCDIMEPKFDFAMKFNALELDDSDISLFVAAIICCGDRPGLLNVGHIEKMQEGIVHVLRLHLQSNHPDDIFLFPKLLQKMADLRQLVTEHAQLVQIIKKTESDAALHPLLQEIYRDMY
T1 sequence (P19793 1-462 partner): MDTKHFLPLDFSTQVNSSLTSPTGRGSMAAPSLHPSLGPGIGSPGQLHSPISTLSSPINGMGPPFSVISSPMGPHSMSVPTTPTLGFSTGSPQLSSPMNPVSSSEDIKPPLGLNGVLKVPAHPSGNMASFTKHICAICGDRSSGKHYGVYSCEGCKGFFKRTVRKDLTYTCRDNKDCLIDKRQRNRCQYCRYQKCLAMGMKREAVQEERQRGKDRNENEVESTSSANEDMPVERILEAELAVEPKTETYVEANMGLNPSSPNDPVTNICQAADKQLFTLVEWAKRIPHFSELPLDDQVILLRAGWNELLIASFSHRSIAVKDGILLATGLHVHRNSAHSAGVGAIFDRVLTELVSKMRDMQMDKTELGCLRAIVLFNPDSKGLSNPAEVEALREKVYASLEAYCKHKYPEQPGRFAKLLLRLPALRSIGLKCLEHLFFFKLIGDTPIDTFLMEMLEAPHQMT
Details: COS-1 cells, human PPARα and RXRα, cited from earlier work

## CN(CCOc1ccc(CC2SC(=O)NC2=O)cc1)c1ccccn1 (centres unmarked) [Rosiglitazone, 5-[[4-[2-(methyl-2-pyridinylamino)ethoxy]phenyl]methyl]-2,4-thiazolidinedione]
At 1 μM
  activation of PPARα: low level activation
At a concentration of 10 μM
  fold activation of PPARα: 4.2 fold
